In patent US20230144608:

Assays:
[1] = system: APAGLIVPYN (SEQ ID NO: 5)
[2] = system: IVGRPRHQGV (SEQ ID NO: 7)

## Cathepsin B
[1]
  initial rate of cleavage by recombinant protease: 1 µM/h
[2]
  initial rate of cleavage by recombinant protease: 1.9 µM/h
PANLVAPDP (SEQ ID NO: 6)
  initial rate of cleavage by recombinant protease: 0 µM/h
PVSLRSGS (SEQ ID NO: 1)
  initial rate of cleavage by recombinant protease: 0 µM/h
RPLALWRS (SEQ ID NO: 3)
  initial rate of cleavage by recombinant protease: 0.3 µM/h
RSKYLATA (SEQ ID NO: 8)
  initial rate of cleavage by recombinant protease: 1.9 µM/h
TQKPLGLS (SEQ ID NO: 4)
  initial rate of cleavage by recombinant protease: 0.3 µM/h
